Earlier results, collected in patent publication US9724355B2, “Fulvestrant compositions and methods of use” (SHIMODA BIOTECH (PTY) LTD, priority 2010, dated 2017).

Conditions: cited from earlier work

For Hydroxypropyl gamma-cyclodextrin, the “Water Solubility (25° C.)” value is listed as >750 mg/mL.
